Results as given in US5840712A, “Water soluble vitamin B12 receptor modulating agents and methods related thereto” (Receptagen Corporation, priority 1995, dated 1998).

Amino acid sequences for entries named in this document (tags omitted). Residues count along the entry.
UniProt P20062, 19-427 limits assumed: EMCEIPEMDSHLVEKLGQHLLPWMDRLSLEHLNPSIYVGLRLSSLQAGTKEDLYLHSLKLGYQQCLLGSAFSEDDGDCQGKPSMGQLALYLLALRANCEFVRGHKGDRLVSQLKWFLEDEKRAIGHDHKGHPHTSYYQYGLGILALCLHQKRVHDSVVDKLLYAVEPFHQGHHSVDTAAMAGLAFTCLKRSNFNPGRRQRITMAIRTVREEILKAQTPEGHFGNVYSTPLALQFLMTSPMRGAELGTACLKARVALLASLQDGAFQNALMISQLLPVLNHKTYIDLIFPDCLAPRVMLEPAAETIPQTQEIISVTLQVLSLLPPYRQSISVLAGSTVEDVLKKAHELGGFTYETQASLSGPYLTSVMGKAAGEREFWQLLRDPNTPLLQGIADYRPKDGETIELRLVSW

Biological target: recombinant transcobalamin II (Homo sapiens, UniProt P20062)
Experiment: Competitive binding assay of vitamin B12 derivatives to TcII versus radiolabeled B12
Conditions: immobilized TcII, constant radiolabeled B12, 20 minutes at 37° C., picomolar concentrations
Protocol: Binding of the vitamin B12 derivatives to recombinant transcobalamin II was conducted in picomolar concentrations and the percent bound ascertained.
In this competitive binding assay, various B12 derivatives, including vitamin B12 receptor modulating agents, were evaluated for their ability to bind to TcII relative to radiolabeled B12. Varying concentrations of each derivative were incubated with immobilized TcII in the presence of a constant amount of radiolabeled B12. After incubation for 20 minutes at 37° C., the free radiolabeled B12 was separated from the TcII bound tracer by removal of the supernatant. The radioactivity of the supernatant solution was then measured to determine the amount of free radiolabeled B12 present at the end of each competition. By measuring the amount of free radiolabeled B12 for each competition, the ability of each derivative to inhibit radiolabeled B12 binding was determined. A binding curve was then be constructed for each B12 derivative where the amount of radiolabeled B12 bound (% radiolabel bound) was correlated with the concentration of derivative present in the original mixture.

For “Cobalamin e-monocarboxylic acid conj Diaminododecane”, the “binding to TcII (ability to inhibit radiolabeled B12 binding), described in words from binding curve” value was “not likely to bind TcII”.

This is a selection: effects in other tests are not listed, and their absence says nothing.
